# Ab-14 heavy chain CDR variants: yeast mating affinities

Values reported by Li et al. 2023, doi:10.1038/s41467-023-39022-2 (FLAb copy).

Antigen: PDVDLGDISGINAS, a 14-residue peptide of the SARS-CoV-2 spike HR2 region.

Parent scFv Ab-14: VH joined to VL by the linker GGGGSGGGGSGGGGS. Changes lie in the heavy chain CDRs alone.
VH: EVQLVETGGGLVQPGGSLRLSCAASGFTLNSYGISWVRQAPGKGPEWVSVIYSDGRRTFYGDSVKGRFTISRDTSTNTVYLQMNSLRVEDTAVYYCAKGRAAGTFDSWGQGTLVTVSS
VL: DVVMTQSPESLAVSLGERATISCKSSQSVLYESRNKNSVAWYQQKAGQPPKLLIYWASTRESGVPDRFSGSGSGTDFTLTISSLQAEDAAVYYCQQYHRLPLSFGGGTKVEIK

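Phage display of a naive human antibody library on the peptide gave the parent. Designed CDR sequences, proposed from the first random library and measured here. Their group label is 14H_Rand (Rand: our label for a block that the file lists under HC and that is probably the random mutants of the ten best first-round binders). Affinity was read by AlphaSeq, a pooled yeast mating assay with surface-displayed partners. Pairs that bind mate more often; barcode pairs of the diploids are counted by sequencing. The ratio of observed to expected reads was calibrated, replicate by replicate, on BCL2-family standards whose Kd was known from biolayer interferometry. Mating was done six times.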

Each variant is given by its three heavy chain CDRs, as the data file delimits them; those of the parent are GFTLNSYGIS, VIYSDGRRTFYGDSVK, GRAAGTFDS.
Values are log10 of the apparent Kd in nM; lower means stronger binding.
Where no diploid with the target was found in that replicate, the entry reads "n.d.": below detection, most likely a poor binder, though not proof of it.
In the paper, a design with two or fewer of six values counts as a poor binder.
Of ten entries with the parent sequence, four were seen in most replicates (averages 0.34 to 2.37), three in one and three in none, so single entries are noisy.
Background: pairings of all heavy chain designs with three empty control strains gave a value in 1% of cases (median 2.08, 5th percentile 0.84). Values in that range, when seen in few replicates, are hard to tell from nonspecific mating. The control count says in how many pairings with the empty strains this scFv gave a signal, with their mean in brackets.
The range of this assay differs from that of the first round, and the authors advise against merging the two.

CDR-H1,CDR-H2,CDR-H3,"replicates, log10 nM",control signals
GFTLNEYGIS,VIYSDGRRTFYTDSVK,GFFAGTFDS,1.68 1.01 1.38 1.34 0.67 0.89,0/18
GFTLNSYLIS,VIYSDVRRTFYSDSVK,GRAGGTFDS,n.d. n.d. n.d. n.d. n.d. n.d.,0/18
GFTLNSYGIS,VIYSDGRRTFYSDSVK,VRAGGTFDS,n.d. n.d. n.d. n.d. n.d. 2.01,0/18
GFDLNSYGIS,VIYSHGPRTFYGDSVK,GRSAGWFNS,n.d. n.d. 0.87 n.d. n.d. n.d.,0/18
GFTLNEYGIS,VIYSDGRRTFYTDSVK,GRFAGVFDS,n.d. n.d. n.d. n.d. n.d. n.d.,0/18
GFTLSDYGIS,VIYSDGRRTQYIDSVK,GRAAGEFDS,n.d. n.d. n.d. n.d. n.d. n.d.,0/18
GFTLNDYGIS,VIYSDGRRTFYGDSRK,GRAALTFIS,n.d. n.d. n.d. n.d. n.d. n.d.,0/18
GFTLNSYGIS,VIYADGRRTFYGDSVK,VRAAGTNKS,n.d. n.d. n.d. n.d. n.d. n.d.,0/18
GFTLNDYGIS,VIYSDGRRTGYGDSVK,GRAELTFIS,n.d. n.d. n.d. n.d. n.d. 2.16,0/18
GFTLNSYGIS,VIYALGRRTFYGDSVK,GRAAMTNKS,n.d. n.d. n.d. n.d. n.d. n.d.,0/18
GFDLNSYGIS,VIYSTGRRTFYGDSVK,GRAAGWFNS,n.d. n.d. n.d. n.d. n.d. n.d.,0/18
GFILNEYGIS,VIYSDGRRTVYTDSVK,GRFAGTFDS,n.d. 1.59 n.d. n.d. n.d. n.d.,0/18
IFTLDSYGIS,VIYSDGRRTFYGDSVK,GRAAGTALS,n.d. n.d. n.d. n.d. n.d. n.d.,0/18
GFTFNSDGIS,VIYADGRRTFYGDSVK,GRAAGTNKS,n.d. 2.43 n.d. n.d. n.d. n.d.,0/18
GFCLNSYGIS,VIYADGRRTFYYDSVK,GRAAGTNKS,n.d. n.d. n.d. n.d. n.d. n.d.,0/18
CFTLNSYGIS,VIYPDGRRKFYGDSVK,GRAAGTNKS,n.d. n.d. n.d. n.d. n.d. n.d.,0/18
GFTLYEYGIS,VIYSDGRRTFYGDSVK,GRAAVTFCQ,n.d. n.d. n.d. n.d. n.d. n.d.,0/18
GFTLNSYGIS,VIYADGRRTTYGDSFK,GRAAGTNKS,n.d. n.d. n.d. 1.55 n.d. n.d.,0/18
GFTLNDYMIS,VIYSDGRRTFYGDSAK,GRAALTFIS,n.d. n.d. n.d. n.d. n.d. n.d.,0/18
GFTLNEYGIS,VIYSDGRRTFYGDSCK,GRAAVTFDM,n.d. n.d. n.d. n.d. n.d. n.d.,0/18
GFTLFSYGIS,VIYSDGRRTFAGDSVK,GRAAGTALS,n.d. n.d. n.d. n.d. n.d. n.d.,0/18
GFTLNQYGIS,VIYSHGRRTRYSGSVK,SRAAGFFDS,n.d. n.d. n.d. n.d. n.d. n.d.,0/18
GFTLNKYGIS,VIYSDGRRTFYEDSVK,GRAGGTFDS,n.d. 2.12 1.72 0.93 1.33 1.94,0/18
GWDLNSYGIS,VIYSDCRRTFYGDSVK,GRAAGWFNS,n.d. n.d. n.d. n.d. n.d. n.d.,0/18
GFTLNNYGIS,VIYSDGDRTFYGDSVK,GRAAVTFDQ,n.d. n.d. n.d. n.d. n.d. 2.14,0/18
GFTLNSYGIS,VIYSDGRRTFYTDSVK,GRAHGTCDS,n.d. n.d. n.d. n.d. n.d. n.d.,0/18
AFELNDYGIS,VIYSDGRRTFYGDSVK,GRAALTFIS,n.d. n.d. n.d. n.d. 1.62 n.d.,0/18
GGTLNSTGIS,VIYSDGRRTFASDSVK,GAAGGTFDS,n.d. n.d. n.d. n.d. n.d. n.d.,0/18
GFTLNSYGIS,VIYSDGRRTFYKGSVK,GRAFGTFDS,n.d. n.d. n.d. n.d. n.d. n.d.,0/18
GHTLNSYQIS,VIYSDGRRTFYDDSVK,GQLAGTFDS,n.d. n.d. n.d. n.d. n.d. n.d.,0/18
GFTLNEYGIS,VIYSDGRRTFYTDTVK,GRTAGTFDS,1.02 0.95 1.61 1.01 0.96 1.59,1/18 (3.99)
GFTLDSYGIS,VKYSDGRRTFRGDSVK,GRAAGTALS,1.30 n.d. n.d. n.d. n.d. n.d.,0/18
GFNLNEPGIS,VIYSDGRRTFYTDSIK,GRFAGCFDS,n.d. n.d. n.d. n.d. n.d. n.d.,0/18
GFTLNSYGIS,VAYADGNRTFYGDSVK,GRAAGTNKS,n.d. n.d. n.d. n.d. n.d. n.d.,2/18 (2.01)
AFTLDSYGHG,VIYSDGRATFYGDSVK,GRAAGTALS,n.d. n.d. n.d. n.d. n.d. n.d.,1/18 (2.33)
GFDLHSYGIS,VIYSDGRRTFYGVSVK,GRAAGWFNS,n.d. 1.23 n.d. n.d. n.d. n.d.,0/18
GFTLRDYGIS,VIYSDGRRTQYIDSVK,GRAAGTFDS,n.d. n.d. n.d. n.d. n.d. n.d.,0/18
GFTLNDYGIS,VIYHDRRRVQYIDSVK,GRAAGTFDS,n.d. n.d. n.d. n.d. n.d. n.d.,0/18
GFTLNDYGIS,VIYSDGRRTFYGDSVK,GRAADTFIS,n.d. n.d. n.d. n.d. n.d. n.d.,0/18
GFTLNSYGIS,VIHSDGRRTFYSDSVK,GRAGGTFDS,n.d. n.d. n.d. n.d. n.d. n.d.,0/18
GFTADSYGIS,VIYSDGRRTFYGDSVK,GRAAGTALS,n.d. n.d. n.d. n.d. n.d. n.d.,0/18
GVTLNDYGIS,VIYSDGRMTQYIDSVK,GRAAGTFDS,n.d. n.d. n.d. n.d. n.d. n.d.,1/18 (0.54)
GETLNSYGIL,VIYSDGRRTFYSDSVK,GRAGGTFDS,n.d. n.d. n.d. n.d. n.d. n.d.,0/18
EFTANDYGIS,VIYSDGRRTFYGDSKK,GRAALTFIS,n.d. n.d. n.d. n.d. n.d. n.d.,0/18
GFTLNDYGIS,VGYSDGRRTFYGDSVK,YRAALTFIS,n.d. n.d. n.d. n.d. n.d. n.d.,0/18
GFTLNEYGIS,VIYSDGRETFYQDSVK,GRAAVTFDQ,n.d. n.d. n.d. n.d. n.d. n.d.,0/18
GFTLNEYGIS,VIYSDGRRTFTTDSVK,TRFAGTFDS,n.d. n.d. n.d. n.d. n.d. n.d.,0/18
GFTLNFYGIS,VIYADPRRTFYGDSVK,GRAAGTNKS,n.d. n.d. n.d. n.d. n.d. n.d.,0/18
GFTLNGYGIS,VIYSDGRRTFYCDSVK,GPAAGYFDS,0.97 1.40 n.d. 1.14 1.85 2.53,0/18

Extract of 7 entries:

CDR-H1,CDR-H2,CDR-H3,"replicates, log10 nM",control signals
GFCLNSYGIS,VIYADGRRTFYYDSVK,GRAAGTNKS,n.d. n.d. n.d. n.d. n.d. n.d.,0/18
GFTLNSYGIS,VIYADGRRTFYGDSVK,VRAAGTNKS,n.d. n.d. n.d. n.d. n.d. n.d.,0/18
GFDLNSYGIS,VIYSHGPRTFYGDSVK,GRSAGWFNS,n.d. n.d. 0.87 n.d. n.d. n.d.,0/18
GFTADSYGIS,VIYSDGRRTFYGDSVK,GRAAGTALS,n.d. n.d. n.d. n.d. n.d. n.d.,0/18
GFTLNFYGIS,VIYADPRRTFYGDSVK,GRAAGTNKS,n.d. n.d. n.d. n.d. n.d. n.d.,0/18
EFTANDYGIS,VIYSDGRRTFYGDSKK,GRAALTFIS,n.d. n.d. n.d. n.d. n.d. n.d.,0/18
GFILNEYGIS,VIYSDGRRTVYTDSVK,GRFAGTFDS,n.d. 1.59 n.d. n.d. n.d. n.d.,0/18